Data: US8877206B2, “Stimulation of an immune response by cationic lipids” (PDS Biotechnology Corporation, priority 2007, dated 2014)

Tested on: BMDC
Experiment: CCL2 release from BMDC (ELISA)
Assay type: cell-based, C57BL/6 mice
Conditions: pre-incubated 20 min, then 75 μM DOTAP 24 h; PD 20 μM, SB 10 μM, U 10 μM, PTx 200 ng/mL, PP2 10 μM, Wort 200 nM, GF 200 nM; FIG. 18

Row | SMILES | Effect on DOTAP-induced CCL2 production
1 | C[S+]([O-])c1ccc(-c2nc(-c3ccncc3)c(-c3ccc(F)cc3)[nH]2)cc1 (centres unmarked) | synergistically increased CCL2 production
2 | N#CC(=C(/N)Sc1ccccc1N)/C(C#N)=C(\N)Sc1ccccc1N | almost completely abolished CCL2 production
